Screens as filed in PubChem BioAssay.
uPA surface inh: cell surface uPA generation inhibition; cell surface uPA generation assay, qHTS; Potency, µM (series often up to 38.3 µM), without a hit: top-dose activity change, negative = inhibition, hits mostly inhibitors; 330,000 compounds, 0.31% hits; AID 540303; active = well fitted inhibition curve with a large enough effect; inconclusive = small, poorly fitted or top-dose-only effect; inactive = no such curve, though single readings can be large or run the other way; tested in mouse RAW 264.7 cells; note: potency is the fitted concentration of half-maximal effect; % is set by controls: 0 for no effect and ±100 for the full control effect; nearly all actives have a fitted effect of over 55% in size
GALK inhibitor: inhibitors of human galactokinase; P51570; Purified GALK, Kinase-Glo residual ATP luminescence; Potency, µM (series often up to 57.5 µM), for inactives: at the highest dose activity change, negative = inhibition, actives largely listed as inhibitors; 270,000 compounds, 0.007% hits; note: potency is the fitted concentration of half-maximal effect; % is set by controls: 0 for no effect and ±100 for the full control effect
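5 nM enzyme, 35 uM ATP, 100 uM galactose, 20 mM HEPES pH8.0, 5 mM MgCl2; 1 h RT; residual ATP by Kinase-Glo Plus luminescence, qHTS format.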
B2AR arrestin: agonists driving beta-arrestin recruitment to human beta2-adrenergic receptor | beta-arrestin recruitment to beta2AR, cell-based reporter | P07550 | AID 492947 | Potency, µM (highest dose often 46.1 µM), for inactives: top-dose activation, most hits filed as activators | 330,000 compounds, 0.02% hits;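 note: potency is the fitted concentration of half-maximal effect; 0% = DMSO controls and full agonism = EC100 isoproterenol or metaproterenol; nearly all actives have a fitted effect of over 65% in size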
miR-21 FLuc: miR-21 reporter, rising signal; Potency, µM (doses to about 38.3 µM), without a hit: at the top dose reporter change, positive = more light; HeLa miR-21 FLuc reporter, luciferase, 48 h; 340,000 tested, under 10 active; active = well fitted rising curve with a large enough effect; inconclusive = small, poorly fitted or top-dose-only effect; inactive = no such curve, though single readings can be large or run the other way;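 further: % of control where 0% means no effect; miR-21 action dims this reporter so a rising signal means less miR-21 action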
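HeLa cells endogenously expressing miR-21, stably carrying CMV-driven firefly luciferase with a downstream miR-21 binding site, 2000 cells/well. Titrations up to approximately 40 uM, 48 hours; luciferase luminescence read.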
FBPA coupling cs: inhibits coupling enzyme system, counter-screen for aldolase hits | 290,000 compounds, 0.67% hits | activity change, negative = inhibition, % at 58.2 µM, hits read low | AID 2472 | coupling enzyme system counterscreen, AmpLite Red fluorescence; in the data active = activity change below about -30%; note: % is set by controls: 0 for no effect and ±100 for the full control effect
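Coupling enzymes only (glyceraldehyde-3-phosphate) + compound, at 57.5 uM final, 10 min RT; add substrate/coupling/AmpLite Red mix, 20 min RT; fluorescence ex 525/em 598 nm. Actives flag coupling-system interference.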
Giardia killer: kills Giardia lamblia. Giardia lamblia trophozoite viability. activity change, % at 7.66 µM, hits read low. 340,000 compounds, 0.15% hits. AID 540267; in the data active = activity change below about -80%; inconclusive = between about -30% and that limit;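 note: parasites exposed to compound for two days anaerobically before the ATP read; % is set by controls: 0 for no effect and ±100 for the full control effect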
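Each well holds 100 Giardia trophozoites and compound. After two days (48 hrs) at 37 deg C in anaerobic conditions, ATP is quantified by luminescence.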
* = called active by the depositor; ! = not active in a repeat. Compounds with a hit are over-represented: about 0.92% of the library has one in this group of screens. Unless noted, calls come from the whole dose curve; as a rule, active = well fitted curve in the direction sought with a large enough effect; inconclusive = small, poorly fitted or top-dose-only effect, or another doubt; inactive = no such curve, though single readings can be large; an effect the other way counts as inactive or inconclusive.

For CCN(CC)c1ccc(N=Cc2ccc([N+](=O)[O-])o2)cc1 the results were uPA surface inh -5.7%, GALK inhibitor 6.6%, B2AR arrestin -0.3%, miR-21 FLuc 25.3%, FBPA coupling cs -38.7* and Giardia killer -9.5.
CCN(CC)c1ccc(N=Cc2ccccc2[N+](=O)[O-])cc1 was read as uPA surface inh -5.1%, B2AR arrestin -1.0%, miR-21 FLuc 26.4%, FBPA coupling cs -19.3 and Giardia killer -8.0.
Cc1ccc(NCC(=O)N/N=C\c2ccc([N+](=O)[O-])o2)cc1 was read as uPA surface inh inconclusive, GALK inhibitor 6.1%, B2AR arrestin 0.2%, miR-21 FLuc 27.9%, FBPA coupling cs 0.1 and Giardia killer -106.1*.
`Cc1ccc(C)c2c1NC(C(=O)O)C1CC=CC21` (stereo unspecified) gave Giardia killer -29.9.
Screening COc1ccc(N2CCN(C(c3ccc(F)cc3)c3sc4nc(-c5ccco5)nn4c3O)CC2)cc1 (stereo unspecified) returned miR-21 FLuc -0.2%.
O=C(CNC(=O)c1ccccc1)N/N=C/c1ccc([N+](=O)[O-])o1 was read as uPA surface inh inconclusive, GALK inhibitor 0.5%, B2AR arrestin 0.4%, miR-21 FLuc 27.1%, FBPA coupling cs -0.1 and Giardia killer inconclusive.
O=C(CNc1ccccc1)N/N=C/c1ccc([N+](=O)[O-])o1 was read as uPA surface inh -11.1%, GALK inhibitor 0.6%, B2AR arrestin -0.1%, miR-21 FLuc 28.8%, FBPA coupling cs 0.9 and Giardia killer -104.5*.
`CCCCCC(=O)N/N=C/c1ccc([N+](=O)[O-])o1` gave GALK inhibitor -0.2%, B2AR arrestin -0.5%, miR-21 FLuc 27.1%, FBPA coupling cs -2.7 and Giardia killer -103.0*.
COc1ccccc1CNc1nc2ccc(C)cc2n2nnnc12 was read as miR-21 FLuc -6.2%.
NC(CO)C(=O)NNCc1ccc(O)c(O)c1O (stereo unspecified) was read as uPA surface inh -10.4%, GALK inhibitor -1.0%, B2AR arrestin -1.3%, miR-21 FLuc inconclusive, FBPA coupling cs -53.5*! and Giardia killer -4.3.

An excerpt from above in order of heavy-atom count, highest first.
COc1ccccc1CNc1nc2ccc(C)cc2n2nnnc12 was read as miR-21 FLuc -6.2%.
Cc1ccc(NCC(=O)N/N=C\c2ccc([N+](=O)[O-])o2)cc1 was read as uPA surface inh inconclusive, GALK inhibitor 6.1%, B2AR arrestin 0.2%, miR-21 FLuc 27.9%, FBPA coupling cs 0.1 and Giardia killer -106.1*.
For CCN(CC)c1ccc(N=Cc2ccc([N+](=O)[O-])o2)cc1 the results were uPA surface inh -5.7%, GALK inhibitor 6.6%, B2AR arrestin -0.3%, miR-21 FLuc 25.3%, FBPA coupling cs -38.7* and Giardia killer -9.5.
`Cc1ccc(C)c2c1NC(C(=O)O)C1CC=CC21` (stereo unspecified) gave Giardia killer -29.9.

The list continues.
Screening COC(=O)C(N)Cc1ccc(O)cc1 (stereo unspecified) returned uPA surface inh -4.3%, GALK inhibitor -0.1%, B2AR arrestin -0.1%, miR-21 FLuc -7.3%, FBPA coupling cs 3.8 and Giardia killer -20.9.
`CCCCCN1C=CC(=C2C(=O)c3ccccc3C2=O)C=C1` gave uPA surface inh 0.0224µM*, GALK inhibitor 18.8%, B2AR arrestin 0.0%, miR-21 FLuc inconclusive, FBPA coupling cs 1.9 and Giardia killer -92.2*.
CC1=CC(=C2C(=O)c3ccccc3C2=O)C=C(C)N1C was read as uPA surface inh -10.7%, GALK inhibitor -0.6%, B2AR arrestin -0.4%, miR-21 FLuc -31.3%, FBPA coupling cs -2.7 and Giardia killer -16.3.
CC(C)C1N=C(c2ccc3c(c2)OCO3)CC(c2ccccc2O)N1 (stereo unspecified) was read as uPA surface inh 10µM*, GALK inhibitor -4.1%, B2AR arrestin -1.0%, miR-21 FLuc 16.0%, FBPA coupling cs 1.8 and Giardia killer -25.5.
For COc1cc2nc3c(c([Si](C)(C)C(C)(C)C)c2cc1OC)Cn1c-3cccc1=O the results were FBPA coupling cs -42.3*.
`O=c1oc2c(O)c(O)cc3c(=O)oc4c(O)c(O)cc1c4c23` gave uPA surface inh -17.1%, B2AR arrestin -0.9%, miR-21 FLuc -0.1%, FBPA coupling cs -78.5*! and Giardia killer 10.6.
Screening CC1N(C)c2cccc3cccc(c23)N1C returned uPA surface inh 2.6%, GALK inhibitor -1.5%, B2AR arrestin 0.2%, miR-21 FLuc 0.3%, FBPA coupling cs -29.6 and Giardia killer -4.7.
Screening CN1c2cccc3cccc(c23)N(C)C1c1cccs1 returned uPA surface inh 3.0%, GALK inhibitor -1.4%, B2AR arrestin -1.1%, miR-21 FLuc -0.5%, FBPA coupling cs -37.0* and Giardia killer 1.2.
`Cc1ccc(C)c2[nH]c(=O)c(C(c3nnnn3CCc3ccccc3)N3CCOCC3)cc12` (stereo unspecified) gave uPA surface inh 2.0%, GALK inhibitor 0.0%, B2AR arrestin -0.2%, miR-21 FLuc -0.3%, FBPA coupling cs 0.1 and Giardia killer 7.3.
Cc1ccc(C)c2[nH]c(=O)c(C(c3nnnn3Cc3ccco3)N3CCc4ccccc4C3)cc12 (stereo unspecified) was read as uPA surface inh 8.6%, GALK inhibitor -2.1%, B2AR arrestin 1.9%, miR-21 FLuc 5.0%, FBPA coupling cs -34.0* and Giardia killer -15.9.
Cc1nc(NC(=O)CCl)sc1C(=O)N(C)C was read as uPA surface inh 10µM*, GALK inhibitor 9.4%, B2AR arrestin -0.9%, miR-21 FLuc 12.2%, FBPA coupling cs -0.4 and Giardia killer 33.6.
`COc1cccc(C2CC(=O)N3CN(c4ccccc4F)CSC3=C2C#N)c1` (stereo unspecified) gave uPA surface inh 1.7%, GALK inhibitor 1.1%, B2AR arrestin -1.0%, miR-21 FLuc -3.2%, FBPA coupling cs -9.7 and Giardia killer 5.7.
`COc1ccccc1N1CSC2=C(C#N)C(c3ccc(SC)cc3)CC(=O)N2C1` (stereo unspecified) gave uPA surface inh 6.9%, GALK inhibitor 0.9%, B2AR arrestin -0.2%, miR-21 FLuc -3.3%, FBPA coupling cs -37.8* and Giardia killer 10.8.
For COc1cc(C2CC(=O)N3CN(c4ccccc4C)CSC3=C2C#N)cc(OC)c1OC (stereo unspecified) the results were GALK inhibitor 6.6%, B2AR arrestin -0.1%, miR-21 FLuc 7.8% and FBPA coupling cs -35.8*.
Screening Cc1ccc(C2CC(=O)N3CN(c4ccc(Br)cc4)CSC3=C2C#N)o1 (stereo unspecified) returned GALK inhibitor 2.4%, B2AR arrestin -0.7%, miR-21 FLuc -10.4%, FBPA coupling cs -37.9* and Giardia killer 0.1.
`O=C(O)c1cc(N=Nc2ccc(-c3ccc(N=Nc4ccc(O)c(C(=O)O)c4)cc3)cc2)ccc1O` gave FBPA coupling cs 12.9.
For CCOC(=O)c1ccc(NC(=O)CC2C(=O)N(c3cccc(OC)c3)C(=O)N2Cc2ccc(OC)cc2)cc1 (stereo unspecified) the results were miR-21 FLuc 8.6%.
O=C(c1ccco1)N1CCN(c2nc3c(F)cc(F)cc3s2)CC1 was read as miR-21 FLuc -17.9%.
Screening CC(C)C1=C2OC(N)=C(C#N)C(C#N)=C2C(C)CC1 (stereo unspecified) returned GALK inhibitor -0.9%, B2AR arrestin -0.1%, miR-21 FLuc -31.7%, FBPA coupling cs -39.0* and Giardia killer 8.4.
